Measured values published in ChEMBL document CHEMBL1221272, “Discovery and structure-activity relationships of a series of pyroglutamic acid amide antagonists of the P2X7 receptor” (Bioorg Med Chem Lett, 2010).

Amino acid sequences for entries named in this document (tags omitted). A change or cut given only in a name is not applied to a line headed by its entry.
UniProt Q99572: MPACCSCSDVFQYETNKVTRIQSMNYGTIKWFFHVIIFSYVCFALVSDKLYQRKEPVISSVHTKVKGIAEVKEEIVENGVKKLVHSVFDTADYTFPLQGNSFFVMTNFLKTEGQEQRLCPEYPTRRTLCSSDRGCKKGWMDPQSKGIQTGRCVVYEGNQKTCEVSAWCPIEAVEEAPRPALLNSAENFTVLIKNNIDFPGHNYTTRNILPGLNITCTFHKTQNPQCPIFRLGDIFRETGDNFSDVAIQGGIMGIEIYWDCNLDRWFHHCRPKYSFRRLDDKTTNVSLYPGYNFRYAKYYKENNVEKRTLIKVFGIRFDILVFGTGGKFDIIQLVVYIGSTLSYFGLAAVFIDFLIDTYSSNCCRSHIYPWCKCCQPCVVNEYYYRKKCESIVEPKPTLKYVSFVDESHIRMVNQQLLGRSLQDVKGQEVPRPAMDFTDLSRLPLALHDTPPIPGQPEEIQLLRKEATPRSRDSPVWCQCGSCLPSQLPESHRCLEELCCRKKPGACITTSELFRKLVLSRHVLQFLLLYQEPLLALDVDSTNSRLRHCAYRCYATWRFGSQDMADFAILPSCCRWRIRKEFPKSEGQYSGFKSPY

Target: P2X purinoceptor 7 (Homo sapiens, UniProt Q99572)

IC50 [nM] | Compound
6.31 | CCN1C(=O)CC[C@H]1C(=O)NCc1ccc(Cl)cc1Cl
< 1000 | CCN1C(=O)CC[C@H]1C(=O)NCc1cccc(Cl)c1
25.1 | O=C(NCc1ccc(F)cc1Cl)[C@@H]1CCC(=O)N1C1CCC1
12.6 | CCN1C(=O)CC[C@H]1C(=O)NCc1cccc(Cl)c1Cl
< 1000 | O=C(NCc1ccc(F)cc1Cl)[C@@H]1CCC(=O)N1Cc1ccccc1
1.58 | CCN1C(=O)CC[C@H]1C(=O)NCc1cccc(C(F)(F)F)c1Cl
